According to PubChem BioAssay (Tox21):
Where “and” joins values, the source holds several entries; their conditions need not be identical. Identical values can stand only once. This is a selection; strong and weak results do not stand in their true shares. Inconclusive results are not listed. Calls of active or inactive are those of the source. Unless noted, the call rests on the fitted dose curve; in most records, active means well fitted curve in the direction sought with a large enough effect in the repeat runs; inconclusive means weak or mixed curves; inactive means no such curve, though single readings can be large; an effect the other way counts as inactive or inconclusive.

Protein sequences, listed by entry. Tags and fused reporters are not part of them.
UniProt P06401, whole entry: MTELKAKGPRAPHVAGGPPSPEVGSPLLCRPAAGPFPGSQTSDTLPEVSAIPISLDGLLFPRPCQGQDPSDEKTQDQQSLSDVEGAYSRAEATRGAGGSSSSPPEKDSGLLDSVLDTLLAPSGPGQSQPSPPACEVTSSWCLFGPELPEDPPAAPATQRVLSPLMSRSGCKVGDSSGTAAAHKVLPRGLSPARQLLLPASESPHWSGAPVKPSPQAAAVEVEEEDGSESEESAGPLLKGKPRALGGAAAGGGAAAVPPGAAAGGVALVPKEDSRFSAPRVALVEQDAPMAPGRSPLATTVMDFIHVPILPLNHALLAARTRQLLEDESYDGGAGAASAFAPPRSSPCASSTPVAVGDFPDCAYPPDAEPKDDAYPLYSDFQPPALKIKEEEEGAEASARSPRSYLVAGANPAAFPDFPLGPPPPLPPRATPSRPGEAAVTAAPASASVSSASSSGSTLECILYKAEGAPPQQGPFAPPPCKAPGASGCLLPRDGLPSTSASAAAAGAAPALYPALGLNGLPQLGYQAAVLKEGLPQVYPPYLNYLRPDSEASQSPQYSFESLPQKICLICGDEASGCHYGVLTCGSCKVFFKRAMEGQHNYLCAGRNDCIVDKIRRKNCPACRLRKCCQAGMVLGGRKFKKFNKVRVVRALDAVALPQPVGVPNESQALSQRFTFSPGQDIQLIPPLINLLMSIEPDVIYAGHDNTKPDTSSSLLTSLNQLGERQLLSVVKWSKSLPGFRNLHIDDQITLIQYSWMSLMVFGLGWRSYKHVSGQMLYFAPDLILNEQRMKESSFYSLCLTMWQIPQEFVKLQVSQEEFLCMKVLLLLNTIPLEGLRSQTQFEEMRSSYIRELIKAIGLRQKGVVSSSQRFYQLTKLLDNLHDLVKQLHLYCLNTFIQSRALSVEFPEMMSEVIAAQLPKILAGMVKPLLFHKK
UniProt P34981, whole entry: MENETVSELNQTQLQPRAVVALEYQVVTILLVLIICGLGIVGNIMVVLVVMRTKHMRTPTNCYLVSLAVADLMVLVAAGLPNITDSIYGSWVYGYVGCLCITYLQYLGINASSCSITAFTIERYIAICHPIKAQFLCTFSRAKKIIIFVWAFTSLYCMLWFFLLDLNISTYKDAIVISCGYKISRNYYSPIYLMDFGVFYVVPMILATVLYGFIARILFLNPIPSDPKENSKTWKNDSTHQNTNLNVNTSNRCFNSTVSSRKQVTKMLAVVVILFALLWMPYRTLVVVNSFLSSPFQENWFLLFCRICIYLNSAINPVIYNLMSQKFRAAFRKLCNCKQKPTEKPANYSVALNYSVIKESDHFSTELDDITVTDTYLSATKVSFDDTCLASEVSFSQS

Assays:
[1] = qHTS assay to identify small molecule agonists of the estrogen receptor alpha (ER-alpha) signaling pathway in the presence of an antagonist - cell viability counter screen (AID 1259386); details: VM7Luc4E2 viability, CellTiter-Fluor fluorescence, 22 h; at 92.4 µM (top of the series) unless noted;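 further: cells exposed to compounds for 22 h at 37 °C before the viability read; nearly all actives have a fitted effect of over 30% in size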
Outline: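 VM7Luc4E2, stripped-serum pre-culture 5 d; 24hr plating; +ICI-182,780 10.0nM final; cpds 15 conc, 22hr, 37C/5% CO2; CellTiter-Fluor added at 21hr, fluorescence 1hr later.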

[2] = target: Progesterone receptor (Homo sapiens) (UniProt P06401); test: qHTS assay to identify small molecule agonists of the progesterone receptor (PR) signaling pathway (AID 1346784; calls by dose curve; further: nearly all actives have a fitted effect of over 30% in size); details: PR-UAS-bla HEK293T, beta-lactamase FRET ratio, 16 h; at 92.4 µM (top of the series) unless noted
Outline: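 PR-UAS-bla HEK 293T cells carrying a UAS-driven beta-lactamase reporter were seeded in medium with 2% charcoal-stripped FBS, preincubated 6 hr at 37C, then exposed to compounds in DMSO for 16 hr; agonism was read by LiveBLAzer B/G FRET fluorescence.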

[3] = target: Progesterone receptor (Homo sapiens) (UniProt P06401); test: qHTS assay to identify small molecule antagonists of the progesterone receptor (PR) signaling pathway (AID 1346795; active means well fitted inhibition curve with a large enough effect in the signal ratio in the repeat runs, not every such curve was filed as active; the % refers to the signal ratio); details: PR-UAS-bla HEK293T, beta-lactamase FRET ratio, 16 h; at 92.4 µM (top of the series) unless noted
Outline: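 PR-UAS-bla HEK293T cells carrying a UAS-driven beta-lactamase reporter were plated in medium with 2% charcoal-stripped FBS and rested 6 hr at 37C. Compounds were added with 1 nM R5020 (final) for 16 hr, then FRET substrate loaded 2 hr at room temperature.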

[4] = qHTS assay to identify small molecule antagonists of the progesterone receptor (PR) signaling pathway - cell viability counter screen (AID 1346798); details: PR-UAS-bla HEK293T viability, CellTiter-Glo luminescence, 16 h; at 92.4 µM (top of the series) unless noted; further: nearly all actives have a fitted effect of over 50% in size
Outline: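 PR-UAS-bla HEK293T cells in medium with 2% charcoal-stripped FBS were treated with compounds plus R5020 for 16 hr at 37C. Cell viability was then read by CellTiter-Glo luminescence after 30 min at room temperature in the same wells.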

[5] = qHTS assay to identify small molecule agonists of the progesterone receptor (PR) signaling pathway - cell viability counter screen (AID 1346799; calls by dose curve; further: nearly all actives have a fitted effect of over 45% in size); details: PR-UAS-bla HEK293T viability, CellTiter-Glo luminescence, 16 h; at 92.4 µM (top of the series) unless noted
Source text: National Center for Advancing Translational Sciences [NCATS]
NIH Chemical Genomics Center [NCGC]
U.S. Environmental Protection Agency [EPA]
National Institutes of Environmental Health Sciences [NIEHS]
National Toxicology Program [NTP]
U.S. Food and Drug Administration [FDA]
Progesterone receptor (PR), a nuclear hormone receptor, plays an important role in development, metabolic homeostasis and reproduction. It is activated by the steroid hormone progesterone. Endocrine disrupting chemicals (EDCs) and their interactions with steroid hormone receptors like PR causes disruption of normal endocrine function. To identify the compounds that stimulate PR signaling, a PR-UAS-bla GripTite cell line i.e. PR-UAS-bla HEK293T (Invitrogen, Carlsbad, CA, USA) containing a beta-lactamase reporter gene under the control of an UAS response element was used to screen Tox21 10K compound library. The cytotoxicity of the Tox21 compound library against the PR-bla cell line was tested in parallel by measuring the cell viability using CellTiter-Glo assay in the same wells.
Tox21 Assay Protocol Summary:
PR-UAS-bla HEK293T cells were dispensed at 3,000 cells/5 uL of assay medium containing 2% charcoal stripped FBS per well into black wall/clear-bottom 1536-well plates using a Multidrop Combi (ThermoFisher Scientific, Waltham, MA) dispenser. After the assay plates were incubated at a 37C and 5% CO2 for 6 hr, 23 nL of compounds dissolved in DMSO, positive controls or DMSO only was transferred to the assay plate by a Pintool station (Kalypsys, San Diego, CA). The plates were incubated at 37C and 5% CO2 for 16 hr. Then 1 uL of LiveBLAzer B/G FRET substrate was added using a Flying Reagent Dispenser (FRD, Aurora Discovery, San Diego, CA), the plates were incubated at room temperature for 2 hours, and fluorescence intensity was measured by an Envision plate reader (PerkinElmer, Shelton, CT). For cell viability readout that measures cytotoxicity, 4 uL/well of CellTiter-Glo reagent was added into the assay plates using a FRD. After 30 min incubation at room temperature, the luminescence intensity in the plates was measured using a ViewLux (PerkinElmer) plate reader.

[6] = qHTS assay to identify small molecule antagonists of the TGF-beta/Smad signaling pathway - cell viability counter screen (AID 1346824); details: SBE-bla HEK293T viability, CellTiter-Glo luminescence; at 76.8 µM (top of the series) unless noted; further: nearly all actives have a fitted effect of over 50% in size
Outline: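 SBE-bla HEK 293T cells were plated overnight at 37 C, then given compounds in DMSO plus TGF-beta1 (added as 0.25 ng/mL solution) for 5 hr. After the bla read, CellTiter-Glo was added to the same wells and luminescence read after 30 min at room temperature.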

[7] = qHTS assay to identify small molecule agonists of the TGF-beta/Smad signaling pathway - cell viability counter screen (AID 1346829); details: SBE-bla HEK293T viability, CellTiter-Glo luminescence, 5 h; at 76.8 µM (top of the series) unless noted; further: top concentration of the series differs between compounds; nearly all actives have a fitted effect of over 45% in size
Outline: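 HEK 293T SBE-bla line, 5 hr compound exposure at 37 C, multiplexed CellTiter-Glo viability read by luminescence.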

[8] = qHTS assay to identify small molecule agonists of the TGF-beta/Smad signaling pathway (AID 1346859; active means well fitted activation curve with a large enough effect in the signal ratio in the repeat runs, not every such curve was filed as active; the % refers to the signal ratio); details: SBE-bla HEK293T, TGF-beta/Smad beta-lactamase reporter, 5 h; at 76.8 µM (top of the series) unless noted
Outline: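 HEK 293T cells stably carrying a beta-lactamase reporter driven by the Smad binding element were seeded overnight, exposed to DMSO-dissolved compounds for 5 hr at 37 C, 5% CO2, then loaded with FRET substrate for 2 hr at room temperature.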

[9] = target: Thyrotropin-releasing hormone receptor (Homo sapiens) (UniProt P34981); test: qHTS assay to identify small molecule antagonists of the thyrotropin-releasing hormone receptor (TRHR) signaling pathway (AID 1346877; active means well fitted inhibition curve with a large enough effect in the repeat runs, not every such curve was filed as active); details: TRHR-HEK293, TRH-induced calcium fluorescence, antagonist mode; at 51.3 µM (top of the series) unless noted
[10] = target: Thyrotropin-releasing hormone receptor (Homo sapiens) (UniProt P34981); test: qHTS assay to identify small molecule agonists of the thyrotropin-releasing hormone receptor (TRHR) signaling pathway (AID 1346891; calls by dose curve;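 further: HEK293 cells expressing TRHR with calcium dye readout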); details: TRHR-HEK293 calcium fluorescence, agonist mode; at 57.6 µM (top of the series) unless noted
On the % scale 0 is the no-effect control and ±100 the full control effect.

ClCCNCCCl
inactive: activity change, negative = cytotoxicity [1] -10.5% | activation [2] -0.14% | activity change, negative = inhibition [3] 0.599% | activity change, negative = cytotoxicity [4] 13.4% | activity change, negative = cytotoxicity [5] -10.2% | viability change, negative = cytotoxic [6] -0.576% | activity change, negative = cytotoxicity [7] 11.6% | activation [8] 1.66%

CCC(=O)N(c1ccccc1)C1CCNCC1
inactive: activity change, negative = cytotoxicity [1] 4.2% [at 42.5 µM] | activation [2] 2.84% [at 42.5 µM] | activity change, negative = inhibition [3] 0.594% [at 42.5 µM] | activity change, negative = cytotoxicity [5] 46.5% [at 42.5 µM] | viability change, negative = cytotoxic [6] -6.45% [at 35.3 µM] | activity change, negative = cytotoxicity [7] -4.96% [at 35.3 µM] | activation [8] 1.2% [at 35.3 µM]

O=[N+]([O-])c1ccccc1[N+](=O)[O-]
inactive: activity change, negative = cytotoxicity [1] -12.5% | activity change, negative = cytotoxicity [4] 14.2% and 6.6% | activity change, negative = cytotoxicity [5] 6.24% | viability change, negative = cytotoxic [6] -0.865% and -2.51% | activity change, negative = cytotoxicity [7] -4.3% and 16.2% | activity, negative = inhibition [9] -2.33% and 0.543% | activation [10] 0.219% and -0.0652%

CC(C)OP(OC(C)C)OC(C)C
inactive: activity change, negative = cytotoxicity [1] -0.22% | activation [2] 0.899% | activity change, negative = cytotoxicity [4] -10.7% | activity change, negative = cytotoxicity [5] -18.5% | viability change, negative = cytotoxic [6] -0.778% | activity change, negative = cytotoxicity [7] 10.9% | activation [8] -0.428% | activity, negative = inhibition [9] -1.6% | activation [10] -0.0963%

ClCCOP(OCCCl)OCCCl
inactive: activity change, negative = cytotoxicity [1] -2.83% and 0.182% | activation [2] -0.445% and 1.35% | activity change, negative = inhibition [3] 1.88% and 6.57% | activity change, negative = cytotoxicity [4] 0.523% and -1.46% | activity change, negative = cytotoxicity [5] -2.53% and -0.209% | viability change, negative = cytotoxic [6] 14.5% and 15.4% | activity change, negative = cytotoxicity [7] -1.71% and 2.31% | activation [8] 2.06% and 1.81% | activity, negative = inhibition [9] 2.93% and 2.46% | activation [10] -0.127% and -0.639%

CCOC(=O)N1CCC(=O)CC1
inactive: activity change, negative = cytotoxicity [1] 1.34% [at 42.5 µM] | activation [2] -0.0008% [at 42.5 µM] | activity change, negative = inhibition [3] -0.826% [at 42.5 µM] | activity change, negative = cytotoxicity [4] -7.13% [at 42.5 µM] | activity change, negative = cytotoxicity [5] 8.07% [at 42.5 µM] | viability change, negative = cytotoxic [6] -4.87% [at 35.3 µM] | activity change, negative = cytotoxicity [7] 1.25% [at 35.3 µM] | activation [8] 0.986% [at 35.3 µM] | activity, negative = inhibition [9] 1.47% [at 23.6 µM] | activation [10] -0.0158% [at 26.5 µM]

CCOP(=S)(Cl)OCC
inactive: activity change, negative = cytotoxicity [1] -0.406% | activation [2] 5.67% | activity change, negative = inhibition [3] 3.01% | activity change, negative = cytotoxicity [4] 10.2% | activity change, negative = cytotoxicity [5] -6.7% | viability change, negative = cytotoxic [6] -18.9% | activity change, negative = cytotoxicity [7] -5.13% | activation [8] 0.19% | activity, negative = inhibition [9] -4.37% | activation [10] -0.182%

CCOP(=O)(Cl)Cl
inactive: activity change, negative = cytotoxicity [1] 0.683% and 1.32% | activation [2] 2.53% and 0.202% | activity change, negative = inhibition [3] 10.9% and 2.39% | activity change, negative = cytotoxicity [4] 17.8% and -5.41% | activity change, negative = cytotoxicity [5] -2.63% | viability change, negative = cytotoxic [6] 1.63% and -5.5% | activity change, negative = cytotoxicity [7] 1.2% and 0.0165% | activation [8] 1.96% and 2.01% | activity, negative = inhibition [9] 1.18% and -0.804% | activation [10] -0.501% and -0.527%
